Assay results taken from patent US20240279692A1, “PROCESS OF […] METAL SALT HYDRATE AND 3-HYDROXYPROPIONIC ACID” (LG CHEM, LTD., priority 2021, published 2024).

Test: water solubility of 3-hydroxypropionic acid salt crystal
Type: physicochemical
Settings: in water, at room temperature

## 3-hydroxypropionic acid calcium salt [Ca(3HP)2]
  water solubility: 450 mg/mL
